What was measured:
in vivo = details: male, CD, mouse, sc, 10 mg/kg
[1] = Plasma, brain and eye exposure in C57Bl/6J mice; format: in vivo; details: male, mouse, oral, gavage, Day 5, 30 minutes after dosing
Procedure: The exposure of both compounds was also evaluated in the plasma, brain, and eye. A total of 75 male C57Bl/6J mice, aged 7-8 weeks, were divided into 5 groups each of 15 males, and were dosed by gavage, once daily for 5 days, with either vehicle, Compound P3.1 at 10 or 30 mg/kg/day or AF27873 at 10 or 30 mg/kg/day. During the treatment period all animals were assessed for contextual fear conditioning and a subset of 7 animals per group was evaluated for locomotor activity. On Day 5, plasma, brain, and eye tissue were collected 30 minutes after dosing from 3 animals per treated group to measure concentrations of test item.

Kp at 0.5 h (in vivo; brain): 0.41 | Kp at 2 h (in vivo; brain/plasma): 0.41 | concentration at 30 min ([1]; 10 mg/kg/day): 3.22 µM | concentration at 30 min ([1]; 30 mg/kg/day): 13.1 µM
Structure (SMILES): C[C@@H]1CN(Cc2ncccn2)C[C@H]1c1nc2c(cnn2C2CCOCC2)c(=O)[nH]1 (single isomer, unassigned) [AF27873, reference compound]

Source: US20190307754A1, “PDE9 INHIBITORS FOR TREATMENT OF PERIPHERAL DISEASES” (IMARA, INC., priority 2016, published 2019)
